# Source: patent US7893199B2, “Peptides having neutrophil-stimulating activity” (National University Corporation Gunma University, priority 2006, dated 2011)
# Like-named read-outs stand apart in the source and are kept apart here.
# Tested on: HL-60 cells differentiated into the neutrophil-like cells
# Test: β-hexosaminidase-secreting activity of neutrophil-like differentiated HL-60 cells
# Type: cell-based, human
# Conditions: for Activity (β-hexosaminidase-secreting activity class): lowest concentration class at which secretion was confirmed
# Description: (1) Culture of Cell and Differentiation Into Neutrophil-like Cell
# In this time, the cells were subcultured at a cell density of 1.0×10^5 cells/ml to 1.5×10^6 cells/ml, the number of cells was counted using a microscope, and the state of the cells was also confirmed.
# The HL-60 cells were differentiated into neutrophil-like cells by setting the cell density in the flask to about 1.0×10^6 cells/ml, adding dibutylyl-cAMP (db-cAMP) as a differentiation-inducing agent so as to have a final concentration of 500 μM, and incubating the cells in the presence of CO2 at 37° C. for 3 days.
# (2) Stimulation of Cell and Measurement of β-Hexosaminidase-secreting Activity
# The cells were collected by centrifuging the suspension of the differentiated HL-60 cells (1,000 rpm, 5 minutes, 4° C.). After that, the following operation was repeated three times to wash the cells: Hepes buffered Hank's solution (HBHS) containing ice-cooled 0.1% BSA (1.2 mM CaCl2.2H2O, 5.4 mM KCl, 0.44 mM KH2PO4, 0.49 mM MgCl2.6H2O, 0.41 mM MgSO4.7H2O, 136.9 mM NaCl, 0.34 mM Na2HPO4, 10 mM Hepes, 4.2 mM NaHCO3, 5.5 mM D-glucose, pH 7.4) was added to the cells; the mixture was suspended by inversion; and the mixture was centrifuged again (1,000 rpm, 5 minutes, 4° C.). Subsequently, HBHS was added so that the mixture has a cell density of 5.6×10^6 cells/ml and suspended. Then, DNase I and cytochalasin B were each added so as to have a final concentration of 5 μg/ml, and the cell suspension was dispensed in an amount of 90 μl (5×10^5 cells) on ice. […] After the cell stimulation for 10 minutes, 100 μl of an ice-cooled stop solution (25 mM Tris, 123 mM NaCl, 2.7 mM KCl, pH 7.4) were added, and immediately, the mixture was centrifuged (5,000 rpm, 1 minute, 4° C.). 200 μl of the obtained supernatant were transferred to a new tube.
# The amount of β-hexosaminidase released in the supernatant of the reaction solution was measured by an enzyme reaction using p-nitrophenyl-N-acetyl-μ-D-glucosaminide as a substrate (Non-patent Document 12). That is, the supernatant of the reaction solution was dispensed in an amount of 90 μl to a 96-well plate. 60 μl of a substrate solution (10 mM p-nitrophenyl-N-acetyl-μ-D-glucosaminide, 40 mM citrate, 70 mM Na2HPO4, pH 4.5) were added to each well, followed by incubation at 37° C. for 1 hour. After the reaction, 100 μl of a stop solution (0.4 M glycine, pH 10.7) were added to each well and a color of the released p-nitrophenol was developed. The color development was measured with a plate reader at adsorption at 405 nm (reference: 492 nm). The all amount of β-hexosaminidase contained in the cells was quantified by treating the cells with Triton X-100 having a final concentration of 0.05%. In addition, the amount of β-hexosaminidase secreted by stimulation of 10 μM fMLP was also measured, and the ratio of the secretion amount by stimulation with each peptide to the above sectretion amount by stimulation with fMLP.
# [1] = neutrophil-like differentiated HL-60 cells, Table 1, read-out: EC50 (μM), β-hexosaminidase-secreting activity
# [2] = neutrophil-like differentiated HL-60 cells
SMILES,EC50 [1] [µM],Activity (β-hexosaminidase-secreting activity class) [2],"EC50 (differentiated HL-60 cells, read-out: EC50, β-hexosaminidase-secreting activity) [µM]"
CSCC[C@H](N)C(=O)N[C@@H](C)C(=O)N[C@@H](CC(C)C)C(=O)N1CCC[C@H]1C(=O)N[C@@H](CC(C)C)C(=O)N[C@@H](CCCNC(=N)N)C(=O)N1CCC[C@H]1C(=O)N[C@@H](CC(C)C)C(=O)N[C@H](C(=O)N[C@@H](CCCNC(=N)N)C(=O)NCC(=O)N[C@@H](CC(C)C)C(=O)N[C@@H](C)C(=O)N[C@@H](CO)C(=O)N[C@@H](C)C(=O)N[C@@H](C)C(=O)N[C@@H](CCCCN)C(=O)NCC(=O)NCC(=O)N[C@@H](Cc1c[nH]cn1)C(=O)NCC(=O)NCC(=O)N[C@@H](C)C(=O)O)[C@@H](C)O [compound 014],18,● (a peptide in which the β-hexosaminidase-secreting activity was confirmed at a concentration of 10 μM or less),
CC[C@H](C)[C@H](NC(=O)[C@H](CO)NC(=O)[C@H](CCCNC(=N)N)NC(=O)[C@H](CC(C)C)NC(=O)[C@@H](NC(=O)[C@H](CCCNC(=N)N)NC(=O)[C@H](CS)NC(=O)[C@H](CS)NC(=O)[C@H](CCCNC(=N)N)NC(=O)CNC(=O)[C@H](Cc1ccccc1)NC(=O)CNC(=O)[C@H](C)NC(=O)[C@H](C)NC(=O)[C@@H](N)CCSC)C(C)C)C(=O)N[C@@H](CO)C(=O)N[C@@H](CCCNC(=N)N)C(=O)N[C@@H](Cc1ccccc1)C(=O)N[C@@H](Cc1c[nH]cn1)C(=O)N[C@@H](Cc1c[nH]c2ccccc12)C(=O)N[C@@H](CCCNC(=N)N)C(=O)N[C@@H](CO)C(=O)N[C@@H](CCC(N)=O)C(=O)N[C@@H](Cc1c[nH]cn1)C(=O)N[C@H](C(=O)O)[C@@H](C)O [compound 051],0.3,⊚ (a peptide in which the β-hexosaminidase-secreting activity was confirmed at a concentration of 300 nM or less),
CC[C@H](C)[C@H](NC(=O)[C@H](Cc1c[nH]c2ccccc12)NC(=O)[C@H](CCC(N)=O)NC(=O)[C@@H]1CCCN1C(=O)[C@H](CCC(N)=O)NC(=O)[C@H](CC(C)C)NC(=O)[C@@H](NC(=O)[C@H](Cc1c[nH]c2ccccc12)NC(=O)[C@H](C)NC(=O)[C@H](CO)NC(=O)[C@H](CC(C)C)NC(=O)CNC(=O)[C@H](C)NC(=O)[C@@H](NC(=O)CNC(=O)[C@H](C)NC(=O)[C@H](CCCNC(=N)N)NC(=O)[C@H](CO)NC(=O)[C@H](Cc1ccccc1)NC(=O)[C@@H](N)CCSC)C(C)C)[C@@H](C)O)C(=O)N[C@@H](CCC(N)=O)C(=O)N[C@H](C(=O)N[C@@H](CCCNC(=N)N)C(=O)N[C@@H](CC(N)=O)C(=O)N[C@@H](CCSC)C(=O)O)C(C)C [compound 043],1.3,∘ (a peptide in which the β-hexosaminidase-secreting activity was confirmed at a concentration of 1 μM or less),
CC[C@H](C)[C@H](NC(=O)[C@H](CO)NC(=O)[C@H](CCCNC(=N)N)NC(=O)[C@H](CC(C)C)NC(=O)[C@@H](NC(=O)[C@H](CCCNC(=N)N)NC(=O)[C@H](CS)NC(=O)[C@H](CS)NC(=O)[C@H](CCCNC(=N)N)NC(=O)CNC(=O)[C@H](Cc1ccccc1)NC(=O)CNC(=O)[C@H](C)NC(=O)[C@H](C)NC(=O)[C@@H](N)CCSC)C(C)C)C(=O)N[C@@H](CO)C(=O)N[C@@H](CCCNC(=N)N)C(=O)N[C@@H](Cc1ccccc1)C(=O)N[C@@H](Cc1c[nH]cn1)C(=O)N[C@@H](Cc1c[nH]c2ccccc12)C(=O)N[C@@H](CCCNC(=N)N)C(=O)N[C@@H](CO)C(=O)N[C@@H](CCC(N)=O)C(=O)N[C@@H](Cc1c[nH]cn1)C(=O)N[C@H](C(=O)O)[C@@H](C)O [No. 051],,,0.12
